Source: PubChem BioAssay AID2690 (NMMLSC, 2010)
The entries are a selection whose mix differs from that of the whole data set. Some salts or complexes appear as unconnected parts, following the source record. Calls of active or inactive are those of the source.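 The calls were made as follows: active = superoxide response under a set limit, about three screen SD below normal (cut at about 65% in these data); inactive = the rest.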

Test: yeast aging ROS inhibitors as calorie-restriction mimetics – HTS, primary screen (AID 2690);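 also: yeast aged for seven days with compound at 30 °C before DHE staining; 100% = average MFI of all compound-treated wells on the plate with controls excluded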
Settings: S. cerevisiae aged cells, superoxide DHE fluorescence; at 10 µM; active compounds read low

Row | SMILES | superoxide response (% of plate mean)
1 | CP(=O)(Nc1ccc(SC(F)(F)F)cc1)Oc1ccc(F)cc1 (stereo not drawn) | inactive: 99.7%
2 | CCOP(C)(=S)SCC(=O)NC(C)(CC)C(=O)O (stereo not drawn) | inactive: 101%
3 | CP(=O)(Nc1ccc2c(c1)OCCO2)Oc1ccccc1 (stereo not drawn) | inactive: 99.7%
4 | Cc1ccccc1NP(C)(=O)Nc1ccccc1C | inactive: 111%
5 | COc1ccc(OP(C)(=O)Nc2cccc(Br)c2)cc1 (stereo not drawn) | inactive: 102%
6 | CN(C)CCOC(=O)C(O)(c1ccccc1)C1CCCCC1 (stereo not drawn) | inactive: 107%
7 | COc1ccc(NP(C)(=O)Oc2ccccc2OC)cc1 (stereo not drawn) | inactive: 97.4%
8 | O=[N+]([O-])c1ccc(OP2(=O)COCCO2)cc1 (stereo not drawn) | inactive: 97.1%
9 | O=[N+]([O-])c1cc([N+](=O)[O-])c(NCC2CCS(=O)(=O)C2)c([N+](=O)[O-])c1 (stereo not drawn) | inactive: 157%
10 | CCOC(=O)c1ccc(NP(C)(=O)Oc2ccc(F)cc2)cc1 (stereo not drawn) | inactive: 94.5%
11 | COc1ccc(OP(C)(=O)Nc2ccc(SC(F)(F)F)cc2)cc1 (stereo not drawn) | inactive: 116%
12 | CCN(CC)CCCOC(=O)C(O)(c1ccccc1)C1CCCCC1 (stereo not drawn) | inactive: 102%
13 | CP(=O)(Nc1ccccc1)Oc1ccc(F)cc1 (stereo not drawn) | inactive: 114%
14 | O=[N+]([O-])c1cc([N+](=O)[O-])c(OC2CCCCC2O)c([N+](=O)[O-])c1 (stereo not drawn) | inactive: 108%
15 | CCCCCOc1ccc(NP(C)(=O)Oc2ccc(Cl)cc2Cl)cc1 (stereo not drawn) | inactive: 99.4%
16 | CP(=O)(Nc1ccccc1F)Oc1ccccc1 (stereo not drawn) | inactive: 102%
17 | CC(C)c1ccc(OP(C)(=O)Nc2ccc(SC(F)(F)F)cc2)cc1 (stereo not drawn) | inactive: 93.4%
18 | O=C(OC1CN2CCC1CC2)c1ccc([N+](=O)[O-])cc1 (stereo not drawn) | inactive: 104%
19 | O=C(OCCN1CCN(CCOCc2ccccc2)CC1)C(O)(c1ccccc1)c1ccccc1 | inactive: 83.2%
20 | COc1ccc2c(c1O)-c1c(O)c(OC)cc3c1[C@H](C2)[N+](C)(C)CC3.O=[N+]([O-])c1cc([N+](=O)[O-])c([O-])c([N+](=O)[O-])c1[O-] | inactive: 113%
21 | COc1ccccc1OP(C)(=O)Nc1ccc(Br)cc1 (stereo not drawn) | inactive: 110%
22 | COc1ccc(OP(C)(=O)Nc2ccccn2)cc1 (stereo not drawn) | inactive: 107%

Row | SMILES | superoxide response (% of plate mean)
23 | CN(C)CCOC(=O)C(O)(c1ccccc1)C1CCCC1 (stereo not drawn) | inactive: 90.5%
24 | O=[N+]([O-])c1cc([N+](=O)[O-])c(Nc2ccccn2)c([N+](=O)[O-])c1 | inactive: 108%
25 | Cc1c(NP(C)(=O)Oc2ccc(C(C)C)cc2)c(=O)n(-c2ccccc2)n1C (stereo not drawn) | inactive: 102%
26 | COc1ccccc1OP(C)(=O)Nc1ccc(C)cc1C (stereo not drawn) | inactive: 94%
27 | CP(=O)(Nc1ccccn1)Oc1ccccc1 (stereo not drawn) | inactive: 108%
28 | CCc1ccc(OP(C)(=O)O)cc1 | inactive: 104%
29 | Cc1cc(C)cc(OP(C)(=O)Nc2cccc(C(F)(F)F)c2)c1 (stereo not drawn) | inactive: 109%
30 | COc1ccccc1OP(C)(=O)Nc1ccc(C)c(C)c1 (stereo not drawn) | inactive: 90.9%
31 | COc1ccc(OP(C)(=O)Nc2ccccc2Br)cc1 (stereo not drawn) | inactive: 94.1%
32 | Cc1nc2ccc3ccccc3c2o1.O=[N+]([O-])c1cc([N+](=O)[O-])c(O)c([N+](=O)[O-])c1 | inactive: 126%
33 | CP(=O)(OCCOc1ccccc1)OCCOc1ccccc1 | inactive: 112%
34 | CP(=O)(Nc1ccc(Cl)cc1Cl)Oc1ccccc1 (stereo not drawn) | inactive: 98.3%
35 | Nc1ccc2c(ccc3cccnc32)n1.O=[N+]([O-])c1cc([N+](=O)[O-])c(O)c([N+](=O)[O-])c1 | inactive: 110%
36 | CCOC(=O)c1ccc(NP(C)(=O)Oc2ccc(Cl)cc2)cc1 (stereo not drawn) | inactive: 113%
37 | CP(=O)(OC12CC3CC(CC(C3)C1)C2)OC12CC3CC(CC(C3)C1)C2 | inactive: 124%
38 | COc1ccc(OP(C)(=O)Nc2ccc(Br)cc2)cc1 (stereo not drawn) | inactive: 96.4%
39 | CCN(CC)CC(O)COC(=O)C(O)(c1ccccc1)C1CCCCC1 (stereo not drawn) | inactive: 106%
40 | O=C(OCCCN1CCCC1)C(O)(c1ccccc1)C1CCCCC1 (stereo not drawn) | inactive: 112%
41 | COc1ccccc1OP(C)(=O)Nc1c(C)n(C)n(-c2ccccc2)c1=O (stereo not drawn) | inactive: 98.2%
42 | CCc1ccc(OP(C)(=O)Nc2cccnc2)cc1 (stereo not drawn) | inactive: 84.4%
43 | CP(=O)(Oc1ccccc1)N1CCOC1=O (stereo not drawn) | inactive: 100%
44 | CC(C)(C)c1ccc(OP(C)(=O)O)cc1 | inactive: 98.8%

Row | SMILES | superoxide response (% of plate mean)
45 | COc1ccccc1OP(C)(=O)Nc1ccccc1Br (stereo not drawn) | inactive: 100%
46 | CP(=O)(Nc1ccc(Cl)cc1)Oc1ccc(F)cc1 (stereo not drawn) | inactive: 91.6%
47 | CN(C)C(=O)c1c([N+](=O)[O-])cc([N+](=O)[O-])cc1[N+](=O)[O-] | inactive: 126%
48 | CP(=O)(Oc1ccccc1)OC(c1ccccc1)C(F)(F)F (stereo not drawn) | inactive: 92.4%
49 | CP(=O)(Nc1ccc(SC(F)(F)F)cc1)Oc1ccc(Cl)cc1 (stereo not drawn) | inactive: 105%
50 | Cc1cccc(C)c1OP(C)(=O)Nc1ccc(SC(F)(F)F)cc1 (stereo not drawn) | inactive: 103%
51 | Cc1cc(C)cc(OP(C)(=O)Nc2ccc(SC(F)(F)F)cc2)c1 (stereo not drawn) | inactive: 99.2%
52 | CCc1ccc(OP(C)(=O)N2CCN(c3ccc([N+](=O)[O-])cc3)CC2)cc1 (stereo not drawn) | inactive: 92.1%
53 | CP(=O)(NC(=O)Nc1ccccc1)Oc1ccccc1 (stereo not drawn) | inactive: 106%
54 | O=[N+]([O-])c1cc([N+](=O)[O-])c(O)c([N+](=O)[O-])c1.c1ccc(Oc2ccncc2)cc1 | inactive: 133%
55 | CCOC(=O)c1ccc(NP(C)(=O)Oc2ccc(OC)cc2)cc1 (stereo not drawn) | inactive: 105%
56 | CCOP(C)(=S)SCC(=O)NC(C)C(=O)O (stereo not drawn) | inactive: 92.8%
57 | CP(=O)(Nc1ccccn1)Oc1ccc(Cl)cc1 (stereo not drawn) | inactive: 90.7%
58 | CP(=S)(Nn1cnnc1)Oc1ccccc1 (stereo not drawn) | inactive: 89.5%
59 | CP(=O)(Nc1ccccc1Br)Oc1ccccc1 (stereo not drawn) | inactive: 96.3%
60 | COc1ccccc1OP(C)(=O)Nc1ccccc1 (stereo not drawn) | inactive: 87.7%
61 | O=[N+]([O-])c1cc([N+](=O)[O-])c(Nc2cccnc2)c([N+](=O)[O-])c1 | inactive: 100%
62 | O=[N+]([O-])c1ccc2c(c1)C=Nc1ccccc1O2 | inactive: 84.8%
63 | Cc1cccc(C)c1OP(C)(N)=O (stereo not drawn) | inactive: 88.5%
64 | CC(C)(C)c1ccc(OP(C)(=O)Nc2ccc(SC(F)(F)F)cc2)cc1 (stereo not drawn) | inactive: 105%
65 | Cc1ccc(NP(C)(=O)Oc2ccccc2)c(C)c1 (stereo not drawn) | inactive: 93.1%
66 | COc1ccccc1OP(C)(=O)Nc1ccc(C)cc1 (stereo not drawn) | inactive: 102%

Row | SMILES | superoxide response (% of plate mean)
67 | CCOC(=O)c1ccc(NP(C)(=O)Oc2ccccc2)cc1 (stereo not drawn) | inactive: 97.5%
68 | Cc1cc(C)cc(OP(C)(N)=O)c1 (stereo not drawn) | inactive: 132%
69 | COc1ccc(OP(C)(=O)Nc2cccc(F)c2)cc1 (stereo not drawn) | inactive: 92.3%
70 | COc1ccccc1OP(C)(=O)Nc1cc(Cl)ccc1C (stereo not drawn) | inactive: 104%
71 | CCN(CC)CCCOC(=O)C(O)(c1ccccc1)c1ccccc1 | inactive: 91.2%
72 | COc1ccccc1OP(C)(=O)Nc1cccc(Br)c1 (stereo not drawn) | inactive: 83.8%
73 | CCOC(=O)c1ccc(NP(C)(=O)Oc2cc(C)cc(C)c2)cc1 (stereo not drawn) | inactive: 101%
74 | Cc1cc(C)cc(OP(C)(=O)Nc2ccc(C)cc2C)c1 (stereo not drawn) | inactive: 106%
75 | Cc1ccc(C)c(NP(C)(=O)Oc2ccccc2)c1 (stereo not drawn) | inactive: 91%
76 | CP(=O)(Nc1cccc(Br)c1)Oc1ccccc1 (stereo not drawn) | inactive: 91%
77 | Cc1cc(C)cc(OP(C)(=O)Nc2ccccn2)c1 (stereo not drawn) | inactive: 86.3%
78 | O=C(O)c1cccc(Nc2c([N+](=O)[O-])cc([N+](=O)[O-])cc2[N+](=O)[O-])c1 | inactive: 118%
79 | CC1=NCCc2c1[nH]c1ccccc21.O=[N+]([O-])c1cc([N+](=O)[O-])c(O)c([N+](=O)[O-])c1 | inactive: 104%
80 | CCOC(=O)C(CC)C1=NC(C)(C)Cc2ccccc21.O=[N+]([O-])c1cc([N+](=O)[O-])c(O)c([N+](=O)[O-])c1 (stereo not drawn) | inactive: 119%
81 | O=[N+]([O-])c1cc([N+](=O)[O-])c(Nc2nnnn2CCO)c([N+](=O)[O-])c1 | inactive: 122%
82 | CC1=C2N=C(C=C3N=C(C(C)=C4[N-][C@@](C)([C@@H]5N=C1[C@](C)(CCC(=O)NC[C@@H](C)OP(=O)([O-])O[C@H]1[C@@H](O)[C@@H](n6cnc7cc(C)c(C)cc76)O[C@@H]1CO)[C@H]5CC(N)=O)[C@@](C)(CC(N)=O)[C@@H]4CCC(N)=O)[C@@](C)(CC(N)=O)[C@@H]3CCC(N)=O)C(C)(C)[C@@H]2CCC(N)=O.[C-]#N.[Co+3] | inactive: 97.3%
83 | CN1CCCCC1COC(=O)C1(O)c2ccccc2CCc2ccccc21 (stereo not drawn) | inactive: 106%
84 | COc1ccccc1OP(C)(=O)Nc1c(C)cccc1C (stereo not drawn) | inactive: 111%
85 | CP(=O)(Nc1ccc(SC(F)(F)F)cc1)Oc1ccccc1 (stereo not drawn) | inactive: 91.9%
86 | CCCOc1ccc(NP(C)(=O)Oc2ccc(Cl)cc2)cc1 (stereo not drawn) | inactive: 100%
87 | O=[N+]([O-])c1cc([N+](=O)[O-])c(-n2nnc3ccccc32)c([N+](=O)[O-])c1 | inactive: 116%
88 | Cc1nc2ccc3ccccc3c2s1.O=[N+]([O-])c1cc([N+](=O)[O-])c(O)c([N+](=O)[O-])c1 | inactive: 134%
